Like-named read-outs stand apart in the source and are kept apart here.
Tests used:
Nluc-H3R [1] = biological target: T1, Nluc-H3R (Homo sapiens, UniProt Q9Y5N1); set-up: method as in PMID 30249614; settings: literature value, cited from earlier work
T1 construct: expressed in transfected cells; host or cells: HEK293T, transient transfection; sonicated cell homogenates

Chains of the proteins cited; added tags and fusions are not shown. Lines headed by an entry give the natural chain unless they say otherwise; changes in a name come on top.
UniProt Q9Y5N1: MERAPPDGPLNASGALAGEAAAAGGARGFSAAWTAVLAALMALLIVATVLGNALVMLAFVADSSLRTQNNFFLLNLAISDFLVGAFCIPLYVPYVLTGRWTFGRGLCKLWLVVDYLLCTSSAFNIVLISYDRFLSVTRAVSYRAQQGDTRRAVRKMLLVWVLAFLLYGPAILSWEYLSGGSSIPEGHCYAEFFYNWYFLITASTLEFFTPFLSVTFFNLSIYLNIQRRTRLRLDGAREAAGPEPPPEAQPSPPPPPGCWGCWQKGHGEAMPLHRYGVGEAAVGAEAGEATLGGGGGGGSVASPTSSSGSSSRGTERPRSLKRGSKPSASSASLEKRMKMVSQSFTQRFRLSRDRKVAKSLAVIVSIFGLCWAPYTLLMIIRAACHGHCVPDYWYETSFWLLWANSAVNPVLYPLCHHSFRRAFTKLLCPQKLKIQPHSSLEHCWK

Nluc-H3R [2] = biological target: T1, Nluc-H3R; test: NanoBRET saturation binding assay on Nluc-H3R HEK293T cell homogenates; settings: highest concentration 1 μM for 31a, 31k
Description: HEK293T cells were transiently transfected with 2.5 μg of cDNA encoding Nluc-H3R or Nluc-H4R and 2.5 μg of empty pcDEF3 vector using the polyethylenimine method as described previously in Mocking et al.[23] Two days after transfection, cells were collected in phosphate-buffered saline (PBS) and centrifuged at 1900g for 10 min and the cell pellet was stored at −20°C until the day of experiment. The pellet was resuspended in HBSS buffer, and cells were disrupted using a Branson sonifier 250 (Boom bv., Meppel, the Netherlands) prior to use in a NanoBRET binding assay.
For cell membrane NanoBRET saturation binding experiments, cell homogenates expressing the Nluc-H3R or Nluc-H4R were incubated with the required concentrations of fluorescent ligand in the absence and presence of 10 μM clobenpropit in HBSS for 2 h at 25 °C. For all NanoBRET binding experiments, 10 μM NanoGlo substrate (Promega) was added to each well after the incubation period and fluorescence and luminescence emissions were measured after 5 min.
Total and non-specific saturation binding curves from NanoBRET saturation binding assay were fitted simultaneously using eq 1: [drawing 4] 1 where Bmax is the maximal specific binding, [B] is the concentration of fluorescent ligand in nM, KD is the equilibrium dissociation constant in nM, M is the slope of the non-specific component, and C is the intercept with the Y axis.

## NC(=NCc1ccc(Cl)cc1)SCCCc1cnc[nH]1 [CA200843, reference compound]
Nluc-H3R [1]
  pKD at Nluc-H3R reported in literature: 7.89
Nluc-H3R [1]; read-out: binding affinity at Nluc-H3R reported in literature
  Kd: 0.013 µM
Nluc-H3R [2]
  Kd: 0.044 µM
Nluc-H3R [2]; mean ± SEM, three experiments
  Nluc-H3R pKD: 7.36 ± 0.05
